According to paper PMC11913717:

Biological target: biotinylated EGF receptor (Acro) (UniProt P00533)
Test: SPR; Biacore X100, biotinylated EGFR immobilised on SA chip (5000 RU); EGF injected in HBS-EP pH 7.4, 150 mM NaCl, contact 180 s, dissociation 600 s; steady state fit

Kd: 7.3 nM
Substance: wild‐type EGF (commercially available) (ligand)
